Laboratory results taken from patent US20240131198A1, “RATIOMETRIC BIOSENSOR TATTOOS AND USE THEREOF FOR REAL TIME MEASUREMENTS” (priority 2022, published 2024).

Legend:
[1] = 50 μM/500 μM of FeSO4:H2O2, 10 μM dye
rat skin = experiment: Delivery of Cy5-PEG/Cy3-PEG microneedle tattoo to the shaved skin of living rats; conditions: MN delivery, fluorescence stereomicroscopy several hours after application
[2] = water-saturated n-octanol / phosphate buffer pH 6.8, shake-flask
[3] = PEGylated with 5 kDa MeO-PEG-NH2

| Substance | signal retained when exposed to ROS [1] | diffusion in the skin (rat skin) | log P [2] | water solubility [3] |
| --- | --- | --- | --- | --- |
| Cyanine-3-PEG [Cy3-PEG] | over 75% | clearly diffused in the skin | −1.03±0.02 |  |
| Cyanine-5-PEG [Cy5-PEG] |  | clearly diffused in the skin | −1.22±0.07 | water-soluble |
